Source: PubChem BioAssay AID1229 (Sanford-Burnham Center for Chemical Genomics, 2008)
This is one part of the list. The source made the active and inactive calls.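 How the source made its calls: active means diaphorase activity raised at least twofold by the compound at 20 µM; inactive means activation factor below 2.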

test: compounds boosting diaphorase resazurin reduction – biochemical, uHTS, resorufin fluorescence, counter-screen for diaphorase-coupled primary assays, primary screen (AID 1229); details: Diaphorase/resazurin coupled assay, 16 min, at 20 µM, hits give high values, 1 = vehicle wells, 0 = NADH-free wells
How it was run: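 System – purified diaphorase enzyme from Clostridium kluyveri · Input – enzyme 0.07 U/mL final · Also added – final NADH 0.114 mM, resazurin 0.1 mM · Measured by – fluorescence of resorufin, 544 nm excitation, 590 nm emission · Timing – 16 min enzyme reaction, ambient temperature · Measure – resorufin increase flagging diaphorase activators or reducers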

Row | Structure (SMILES) | activation factor
1 | CCN(N=Nc1nonc1N)c1nonc1N | inactive: 0.8
2 | Cc1cc(SC(NC(=O)c2ccc(F)cc2)C(Cl)(Cl)Cl)ncn1 (stereo not drawn) | inactive: 0.7
3 | Cc1c2non([O-])c-2c(C)[n+](=O)[n+]1[O-] | inactive: 0.5
4 | O=C(NC(Sc1ccncn1)C(Cl)(Cl)Cl)c1ccccc1 (stereo not drawn) | inactive: 0.7
5 | Oc1ccccc1CNc1ccccn1 | inactive: 1
6 | CC(C)CC(=O)NC(Sc1ccc(Cl)cc1)C(Cl)(Cl)Cl (stereo not drawn) | inactive: 1
7 | Clc1ccc(Cl)c(NC2=NCC(CBr)S2)c1 (stereo not drawn) | inactive: 1.1
8 | CN1CCCC(OC(=O)C(c2ccccc2)c2ccccc2)C1 (stereo not drawn) | inactive: 1
9 | Cc1ccc(N/C(=N/P(=O)(N2CCOCC2)N2CCOCC2)N2CCOCC2)cc1 | inactive: 1
10 | NC(=O)c1cc([N+](=O)[O-])cc([N+](=O)[O-])c1N | inactive: 1.1
11 | CC1CCN(C(=O)Oc2c(Cl)cc(Cl)c3cccnc23)CC1 | inactive: 1
12 | CN(C)C(=O)OCCc1n(C)cc[n+]1C | inactive: 1
13 | CC(C)=N/N=C(\N)N[N+](=O)[O-] | inactive: 1.2
14 | CCN(/C(=N/P(=O)(N1CCOCC1)N1CCOCC1)N1CCOCC1)c1ccc(OC)cc1 | inactive: 1
15 | CCc1nc2c(n1)c1c(non1O)c1c2no[n+]1[O-] | inactive: 0.3
16 | O=[N+]([O-])c1cc([N+](=O)[O-])c(CCNc2ccccc2)c([N+](=O)[O-])c1 | inactive: 0.8
17 | O=[N+]([O-])c1cccc2n[nH]nc12 | inactive: 1
18 | COc1ccc(C2=NCC(CBr)S2)cc1 (stereo not drawn) | inactive: 1.2
19 | O=[N+]([O-])c1ncn(CCn2ncnc2[N+](=O)[O-])n1 | inactive: 1
20 | O=C(OC1CN2CCC1CC2)c1cccc(Cl)c1 (stereo not drawn) | inactive: 1
21 | C(Cc1nn[nH]n1)Cc1nn[nH]n1 | inactive: 1
22 | O=P(Nc1ccccn1)(c1ccc(Br)cc1)c1ccc(Br)cc1 | inactive: 1
23 | O=P(Nc1nccs1)(c1ccccc1)c1ccccc1 | inactive: 1
24 | CC(=O)Nc1ccc(Oc2c([N+](=O)[O-])cc([N+](=O)[O-])cc2[N+](=O)[O-])cc1 | inactive: 1

Row | Structure (SMILES) | activation factor
25 | CCOc1ccc(C2=NCC(CBr)S2)cc1 (stereo not drawn) | inactive: 1.1
26 | O=c1c2cc([N+](=O)[O-])ccc2[nH]c2c([N+](=O)[O-])cc([N+](=O)[O-])cc12 | inactive: 0.7
27 | c1ccc(-c2nn[nH]n2)c(-c2nn[nH]n2)c1 | inactive: 1.2
28 | O=C(NC1CCS(=O)(=O)C1)NP(=S)(Oc1ccccc1)Oc1ccccc1 (stereo not drawn) | inactive: 0.8
29 | O=P(Nc1nccs1)(Oc1ccccc1)Oc1ccccc1 | inactive: 1
30 | COc1cc(C2NCCC3(OCCO3)C2(C)C)cc(OC)c1OC (stereo not drawn) | inactive: 0.8
31 | Cc1ccc(NCCc2c([N+](=O)[O-])cc([N+](=O)[O-])cc2[N+](=O)[O-])cc1 | inactive: 0.6
32 | CC(C)/C=N\N=C(\N)N[N+](=O)[O-] | inactive: 1
33 | CN(C(=O)Cc1ccc(Cl)c(Cl)c1)[C@@H]1CCCC[C@H]1N1CCCC1 | inactive: 0.8
34 | Clc1n[nH]nc1-c1nn[nH][15n]1 | inactive: 0.8
35 | O=P1(Nc2ccc(Br)cn2)COc2ccccc2OC1 | inactive: 1.1
36 | O=P1(Nc2ncccn2)COc2ccccc2OC1 | inactive: 1
37 | CC1CCC(C(C)C)C(OP(=O)(Nc2ccccn2)c2ccccc2)C1 (stereo not drawn) | inactive: 1
38 | Cc1nn(-c2ccccc2)c2c1P(=O)(N1CCOCC1)N(C)C(c1ccccc1)=N2 (stereo not drawn) | inactive: 0.8
39 | O=P(Nc1ccccn1)(c1cccc2ccccc12)c1cccc2ccccc12 | inactive: 0.7
40 | Cc1cc(SC(NC=O)C(Cl)(Cl)Cl)ncn1 (stereo not drawn) | inactive: 1
41 | CCC(C)N(CC(C)C)C(=S)SC(NC(C)=O)C(Cl)(Cl)Cl (stereo not drawn) | inactive: 1.1
42 | COP1(=S)c2c(C)nn(CCC#N)c2N=C(c2ccc(F)cc2)N1C (stereo not drawn) | inactive: 1.1
43 | COc1ccc(N/C(=N/P(=O)(N2CCOCC2)N2CCOCC2)N2CCOCC2)cc1 | inactive: 1
44 | Cc1c2c(nc3ccccc13)SC(C(Cl)Cl)C2 (stereo not drawn) | inactive: 0.8
45 | Cc1cc(=O)[nH]c(N[N+](=O)[O-])n1 | inactive: 1
46 | O=C(OC1CN2CCC1CC2)C12CC3CC(CC(C3)C1)C2 (stereo not drawn) | inactive: 1
47 | CCN(CC)C(=S)SC(NC=O)C(Cl)(Cl)Cl (stereo not drawn) | inactive: 1
48 | Cc1ccc2nc3c(c(C)c2c1)CC(C(Cl)Cl)S3 (stereo not drawn) | inactive: 0.8
